# Only some compounds are listed: those with a hit (about 1.1% of all), similar ones and a draw of the others.
# PINK1 expr mod = changes PINK1 expression; Potency, µM (series often up to 76.6 µM), usual class: activators; PINK1 immunofluorescence, high-content cytometry, 24 h; 0.2% of 410,000 active; active = well fitted activation curve with a large enough effect; inconclusive = small, poorly fitted or top-dose-only effect; cell line not stated here; note: nearly all actives have a fitted effect of over 65% in size
#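 Stable cell line treated 24 h with compounds at 5 concentrations (CCCP controls), then fixed and immunostained for PINK1 plus nuclear and cell stains; PINK1 immunofluorescence quantified by laser-scanning microplate cytometry.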
# miR-21 reporter = raises the signal of a miR-21 reporter; Potency, µM (doses to about 38.3 µM); HeLa miR-21 FLuc reporter, luciferase, 48 h; AID 2288; 340,000 tested, under 10 active; active = well fitted rising curve with a large enough effect; inconclusive = small, poorly fitted or top-dose-only effect; inactive = no such curve, though single readings can be large or run the other way;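 further: miR-21 action dims this reporter so a rising signal means less miR-21 action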
#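 HeLa cells stably expressing CMV-driven firefly luciferase with a downstream miR-21 binding sequence, endogenously expressing miR-21, were treated with titrations (up to about 40uM final) for 48 hours at 37 degree Celsius. Luciferase luminescence was read after lysis.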
# TrxR1 inh = inhibitors of rat thioredoxin reductase 1 | 1% of 390,000 active | recombinant rTrxR1, NADPH fluorescence consumption, selenite substrate | O89049 | Potency, µM (top dose mostly 114 µM), most hits filed as inhibitors; note: nearly all actives have a fitted effect of over 65% in size
#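 Rat TrxR1 (90 nM in the dispensed reagent) was pre-reduced with 400 uM NADPH for 5 min at room temperature, then incubated with compound for 15 min. After 400 uM selenite was added, NADPH fluorescence (Ex 340/Em 450 nm) was followed for 8 min.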
# TrxR1 substrate = substrates of rat thioredoxin reductase 1; O89049; purified TrxR1 substrate turnover, NADPH consumption readout; Potency, µM (doses to about 114 µM); 0.01% of 390,000 active; note: nearly all actives have a fitted effect of over 50% in size
#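 Rat TrxR1, dispensed at 90 nM, was prereduced with 400 uM NADPH (final) for 5 min at ~22 deg C, then incubated with compound 15 min before 400 uM selenite. A first-read NADPH fluorescence drop versus no-compound background flagged substrates.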
# GALK inh = inhibitors of human galactokinase | P51570 | Potency, µM (titrated, usually from 57.5 µM), usual class: inhibitors | 0.007% of 270,000 active | Purified GALK, Kinase-Glo residual ATP luminescence
#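 ATP-depletion format; final 35 uM ATP, 100 uM D-galactose, 5 nM enzyme; pH 8.0 HEPES/Mg2+ buffer; 60 min RT; luminescence read 10 min after detection reagent.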
# A number is an active result; 0 = inactive; ? = inconclusive; - = no result given; [ ] = remark or other dose. Unless noted, calls come from the whole dose curve; as a rule, active = well fitted curve in the direction sought with a large enough effect; inconclusive = small, poorly fitted or top-dose-only effect, or another doubt; inactive = no such curve, though single readings can be large; an effect the other way counts as inactive or inconclusive.
SMILES,PINK1 expr mod,miR-21 reporter,TrxR1 inh,TrxR1 substrate,GALK inh
Cc1ccc(-c2nn(CC(=O)NC3CCCCC3)c3c2cnc2ccccc23)cc1,0,0,0,0,-
Cc1nc(-c2ccc(S(=O)(=O)N(C)Cc3ccccc3)cc2)co1,0,0,0,0,-
O=C(NCCCSc1ccccc1)c1cc(Cl)ccc1O,17.8µM,0,0,0,0
CC(C)CNC(=O)COC(=O)c1c2c(nc3ccccc13)/C(=C\c1cccs1)CC2,0,-,0,0,-
CN(CCC#N)C(=O)COC(=O)c1c2c(nc3ccccc13)/C(=C/c1ccco1)CC2,0,0,5.62µM,0,0
CCCCCCCCOC(=O)c1cc([N+](=O)[O-])c(Sc2ncnc3nc[nH]c23)c([N+](=O)[O-])c1,0,-,39.8µM,0,-
COc1ccc(Nc2sc(C(=O)c3ccc(Cl)cc3)c(N)c2C(=O)Nc2ccccc2OC)cc1,15.8µM,0,0,0,0
Cc1ccc(-c2nc(CS(=O)CC(=O)NC3CC3)c(C)o2)cc1 (stereo not drawn),0,0,0,0,0
CCc1ccc(-c2nc(CS(=O)CC(=O)NC3CC3)c(C)o2)cc1 (stereo not drawn),0,0,15.8µM,0,0
COc1ccc(-c2nc(CS(=O)CC(=O)NCCC3=CCCCC3)c(C)o2)cc1 (stereo not drawn),0,0,15.8µM,0,0
Cc1oc(-c2ccccc2)nc1CS(=O)CC(=O)N1CCc2ccccc2C1 (stereo not drawn),0,0,20µM,0,0
Cc1ccc(-c2nc(CS(=O)CC(=O)N3CCN(c4ccccc4)CC3)c(C)o2)cc1 (stereo not drawn),0,0,0,0,0
CCc1ccc(-c2nc(CS(=O)CC(=O)O)c(C)o2)cc1 (stereo not drawn),0,0,3.55µM,0,-
CCc1ccc(-c2nc(CS(=O)CC(=O)NC3CCCCCC3)c(C)o2)cc1 (stereo not drawn),0,0,20µM,0,0
COc1ccc(-c2nc(CS(=O)CC(=O)NC3CCCCCC3)c(C)o2)cc1 (stereo not drawn),0,0,?,0,0
COc1ccc(-c2nc(CS(=O)CC(=O)NC3CCCCC3)c(C)o2)cc1OC (stereo not drawn),0,0,50.1µM,0,0
COc1ccc(-c2nc(CS(=O)CC(=O)NC3CCCCC3)c(C)o2)cc1 (stereo not drawn),0,0,0,0,0
COC(=O)c1cc2oc3ccccc3c2n1Cc1cccc(C)c1,0,0,0,0,-
Cc1[nH]n(C(N)=S)c(=O)c1C(c1ccccc1)C(C#N)C#N (stereo not drawn),0,0,?,0,0
Cc1[nH]n(-c2ncc(-c3ccccc3)s2)c(=O)c1C(c1ccc(Br)cc1)C(C#N)C#N (stereo not drawn),?,0,31.6µM,0,0
COc1cccc(CNc2nc3ccc(C)cc3n3cnnc23)c1,39.8µM,0,0,0,0
Cc1ccc(CNc2nc3ccc(C)cc3n3cnnc23)cc1,0,0,0,0,0
CCOc1ccccc1N(C)C(=O)CCS(=O)(=O)c1ccc2c(c1)NC(=O)C(C)S2 (stereo not drawn),0,0,70.8µM,0,0
CC1Sc2ccc(S(=O)(=O)CCC(=O)N(C)Cc3ccco3)cc2NC1=O (stereo not drawn),0,0,0,0,0
CCOc1ccccc1CN1CCc2nc(Nc3ccc4c(c3)OCCO4)ncc2C1,0,0,0,0,-
SMILES,PINK1 expr mod,miR-21 reporter,TrxR1 inh,TrxR1 substrate,GALK inh
Cc1cc(NC(=S)Nc2cccnc2)ccc1Br,0,0,?,0,0
Cc1cc(Cl)ccc1NC(=S)Nc1cccnc1,0,0,28.2µM,0,0
CCOC(=O)C1=C(O)/C(=C/c2cn(CC(=O)NCC3CCCO3)c3ccccc23)SC1=Nc1ccc(C)cc1 (stereo not drawn),14.1µM,-,0,0,-
Cc1ccc(-c2nc(CS(=O)CC(=O)N3CCN(c4ccc(Cl)cc4)CC3)c(C)o2)cc1 (stereo not drawn),0,0,0,0,-
O=C(NCC(c1ccco1)S(=O)(=O)c1ccc(Cl)cc1)c1ccccc1F (stereo not drawn),0,0,14.1µM,0,-
Cc1ccc(S(=O)(=O)C(CNC(=O)c2c(F)cccc2F)c2ccco2)cc1 (stereo not drawn),0,0,0,0,-
Cc1ccc(SCC2=NN(c3nc(C)cc(C)n3)C(=O)C2)cc1,0,0,0,0,0
Cc1cc(C)nc(N2N=C(C(C)(C)C)CC2=O)n1,?,0,39.8µM,0,0
CN1CCN(C(c2ccc(Cl)cc2)c2cc(Cl)c3cccnc3c2O)CC1 (stereo not drawn),0,0,6.31µM,0,0
CN1CCN(C(c2ccc(C(F)(F)F)cc2)c2cc(Cl)c3cccnc3c2O)CC1 (stereo not drawn),-,?,-,-,0
CCOC(=O)Cc1cc(C(=O)Nc2ccc(Br)cc2)sc1-c1ccc(C)cc1,0,0,0,0,-
Cc1ccc(O)c(CN(C)Cc2cc(C)ccc2O)c1,0,-,0[11.4 µM],0[11.4 µM],-
CN(C)Cc1cc(O)c(CN(C)C)cc1O,0,0,14.1µM,0,-
CCN(CC)C(=O)OCCc1cc2ccccc2c(=O)o1,0,-,39.8µM,0,-
COC(=O)c1c(-c2ccc(Cl)cc2)noc1N1CCN(c2cccc(C(F)(F)F)c2)CC1,0,0,0,0,-
Cc1noc(C)c1CC(=O)N1CCOc2c(cc(-c3nc4ccccc4s3)cc2OC2CCOC2)C1 (stereo not drawn),0,-,-,-,-
COc1ccc(N2C(=O)CC(Sc3ncn[nH]3)C2=O)c(OC)c1 (stereo not drawn),0,0,0.501µM,0,0
CC(C)c1ccc(N2C(=O)CC(Sc3ncn[nH]3)C2=O)cc1 (stereo not drawn),0,0,?,0[11.4 µM],0
COc1ccc(C(=O)N(Cc2ccco2)Cc2ccco2)cc1,0,0,0,0,-
CC(=O)NCCCC(=O)NNC1CC(=O)N(c2cccc(Cl)c2)C1=O (stereo not drawn),0,0,14.1µM,0,0
CCCCCC(=O)NNC1CC(=O)N(c2cccc(OCC)c2)C1=O (stereo not drawn),0,0,0[11.4 µM],0[11.4 µM],0
CCSC(=O)N1CCN(/[N+]([O-])=N/Oc2ccc([N+](=O)[O-])cc2[N+](=O)[O-])CC1,0,-,11.2µM,0,-
CCCOC(=O)N1CCN(/[N+]([O-])=N/Oc2ccc([N+](=O)[O-])cc2[N+](=O)[O-])CC1,-,-,11.2µM,0,-
CN(C)/[N+]([O-])=N/Oc1cc(ON=[N+]([O-])N2CCN(c3ncccn3)CC2)c([N+](=O)[O-])cc1[N+](=O)[O-],-,-,?,0,-
COC(=O)N1CCN(/[N+]([O-])=N/Oc2ccc([N+](=O)[O-])cc2[N+](=O)[O-])CC1,-,-,?,0,-
O=[N+]([O-])c1ccc(O/N=[N+](\[O-])N2CCCCC2)c([N+](=O)[O-])c1,0,-,22.4µM,0,-
